# Assay results: published antibiotic growth screens (doi:10.1038/s41589-023-01349-8)
# Some of the results follow.
# Test system: A. baumannii ATCC 17978
# Experiment: relative growth (fraction of control); higher = less inhibition
# Settings: 50 µM
row,Compound,relative growth
1,O=C(CCCCCC(=O)N/N=C/[C@H](O)[C@H](O)[C@@H](O)[C@@H](O)CO)NO,0.895
2,NNC(=O)COc1ccccc1,0.829
3,CN1CCN(C(=O)C[C@@H]2C=C[C@@H](NC(=O)c3ccc4c(c3)OCO4)[C@H](CO)O2)CC1,1.02
4,CO[C@H]1O[C@H](CO)[C@@H](OC(=O)Nc2ccc(Oc3ccccc3)cc2)[C@H](OC(=O)Nc2ccccc2-c2ccccc2)[C@@H]1OC(=O)Nc1ccccc1-c1ccccc1,1.11
5,O=C(O)CSCC(=O)N[C@H]1CCSC1=O,0.836
6,O=C(CN1CCOCC1)NCC[C@H]1CC[C@@H](NC(=O)Nc2ccccc2)[C@H](CO)O1,0.897
7,NS(=O)(=O)c1ccc(CCn2ccn(CC(=O)NCCC3=CCCCC3)c(=O)c2=O)cc1,1.18
8,CC(C)NCC(O)c1ccc(O)c(O)c1.Cl (centres undefined),0.934
9,O=C(CN1CCOCC1)N[C@H]1CC[C@H](CCNS(=O)(=O)c2ccccc2F)O[C@@H]1CO,1.01
10,CNC(=O)Cn1c(=O)c2c(OC)c(C)cnc2n(C)c1=O,1.17
11,C[C@H]1CN([C@@H](C)CO)C(=O)c2cc(-c3cncnc3)cnc2O[C@@H]1CN(C)C(=O)CN1CCOCC1,0.952
12,CN1CCN(C(=O)C[C@@H]2CC[C@H]3[C@@H](COC[C@@H](O)CN3C(=O)C3CCCC3)O2)CC1,0.962
13,CCOC(=O)C[n+]1ccccc1C,0.857
14,NC(=O)N1c2ccccc2CC(=O)c2ccccc21,0.938
15,COCC#Cc1ccc2c(c1)O[C@@H](CN(C)Cc1ccc(F)cc1)[C@@H](C)CN([C@@H](C)CO)S2(=O)=O,0.922
16,O=C(NO)c1ccc(C(=O)N/N=C/[C@H](O)[C@@H](O)[C@@H](O)[C@H](O)C(=O)O)cc1,0.943
17,C[C@H]1CN([C@@H](C)CO)S(=O)(=O)c2ccc(C#CC3(O)CCCC3)cc2O[C@@H]1CN(C)C(=O)Cc1ccncc1,0.881
18,CN(C)CC(=O)N[C@H]1CC[C@H](CCNC(=O)C2CCC2)O[C@@H]1CO,1.06
19,O=C(C[C@@H]1C=C[C@H](NC(=O)Cc2ccccn2)[C@@H](CO)O1)NCCCN1CCOCC1,0.971
20,C=C[C@](C)(O)CC[C@@H]1[C@@]2(C)CCCC(C)(C)[C@@H]2CC[C@]1(C)O,1.21
21,C/C(=N\N)c1c(C)cc(C)[nH]c1=O,0.94
22,COc1ccc(C(=O)NC(CO)(CO)CO)cc1OC,1.04
23,CN1C(=O)C[C@H](Nc2ccc(N(C)C)cc2)C1=O,0.856
24,CC(=O)N[C@H]1CC[C@H](CCNC(=O)C2CC2)O[C@@H]1CO,1.06
25,CN1C(=S)N[C@@H]2CS(=O)(=O)C[C@@H]21,0.915
26,O=C(C[C@H]1C=C[C@H](NC(=O)CN2CCOCC2)[C@H](CO)O1)NCCc1ccccc1,0.949
27,CC(=O)OCC(=O)[C@@]12N=C(C)O[C@@H]1CC1C3CCC4=CC(=O)C=C[C@]4(C)C3[C@@H](O)C[C@@]12C (some centres undefined),0.931

row,Compound,relative growth
1,C[C@H](CO)N1C[C@H](C)[C@@H](CN(C)S(=O)(=O)c2ccccc2F)Oc2ncc(C#Cc3ccccc3F)cc2C1=O,1.05
2,Cc1ccc2nc(SCc3c(C)c(C)cc(C)c3C)[nH]c2c1,1.12
3,Cc1cc(NC2CCCCC2)ncn1,0.978
4,CC(NCCC(c1ccccc1)c1ccccc1)c1ccccc1.Cl (centres undefined),0.882
5,CO[C@@H]1CN(C)C(=O)c2ccc(NS(C)(=O)=O)cc2OC[C@@H](C)N(C(=O)CN(C)C)C[C@@H]1C,1.06
6,CCOC(=O)C1=C(C)NC(=O)N[C@@H]1C,1.1
7,CC1(C)S[C@H]2[C@@H](NC(=O)[C@@H](N)c3ccccc3)C(=O)N2[C@@H]1C(=O)O,1.06
8,O=C(NCc1ccncc1)C(=O)NC[C@H]1OCCN1S(=O)(=O)c1ccc(F)cc1,0.911
9,COc1ccc(S(=O)(=O)N[C@@H]2C=C[C@H](CC(=O)N3CCN(c4ccccc4)CC3)O[C@@H]2CO)cc1,0.98
10,O=C(N[C@@H]1CC=CC[C@H](CC(=O)N(CCO)Cc2ccccc2)C(=O)NCC(c2ccccc2)OC1=O)OCC1c2ccccc2-c2ccccc21 (some centres undefined),0.923
11,CC(C)(C)C(=O)Nc1ccccc1F,0.94
12,COc1cccc(C#Cc2ccc3c(c2)O[C@@H](CN(C)S(=O)(=O)c2ccccc2F)[C@H](C)CN([C@H](C)CO)S3(=O)=O)c1,1.26
13,c1ccc(-c2cccs2)cc1,0.96
14,Cn1cnc(CCNC(=O)C[C@H]2CC[C@@H]3[C@H](COC[C@H](O)CN3C(=O)Nc3ccc(C(F)(F)F)cc3)O2)c1,1.03
15,Nc1nonc1N1CCCCC1,0.899
16,COCC(=O)Nc1ccc2c(c1)C(=O)N(C)C[C@H](OC)[C@@H](C)CN(Cc1cccc(F)c1)[C@H](C)CO2,0.973
17,COc1ccc2nc(S(=O)Cc3ncc(C)c(OC)c3C)[nH]c2c1 (centres undefined),1.01
18,O=C(C[C@H]1CC[C@H]2[C@@H](COC[C@H](O)CN2S(=O)(=O)c2cccc(Cl)c2)O1)N1CCOCC1,1.01
19,CO[C@@H]1CN(C)C(=O)c2cc(NC(=O)c3ccccc3)ccc2OC[C@@H](C)N(C(=O)CN(C)C)C[C@@H]1C,1.15
20,C[C@@H]1CN([C@@H](C)CO)S(=O)(=O)c2ccc(C#CCN(C)C)cc2O[C@@H]1CN(C)C(=O)C1CCCCC1,0.923
21,CS(=O)(=O)N(CCC#N)Cc1ccco1,0.998
22,NC[C@H]1O[C@H](O[C@H]2[C@H](O)[C@@H](O[C@H]3O[C@H](CO)[C@@H](O)[C@H](N)[C@H]3O)[C@H](N)C[C@@H]2N)[C@H](N)[C@@H](O)[C@@H]1O.O=S(=O)(O)O,0.153
23,COc1ccc2c3c1O[C@H]1C[C@@H](O)C=C[C@@]31CCN(C)C2,1.03
24,COc1ccccc1C#Cc1ccc2c(c1)O[C@@H](CN(C)C(C)=O)[C@H](C)CN([C@@H](C)CO)S2(=O)=O,0.823
25,COCCOC(=O)N1C(=O)[C@@]2(c3cc(C#CC4=CCCCC4)ccc31)[C@H](c1ccc(O)cc1)N1[C@H](c3ccccc3)[C@H](c3ccccc3)OC(=O)[C@H]1[C@@H]2C(=O)N1CCN(c2ncccn2)CC1,0.966
26,O=C(C[C@H]1CC[C@H]2[C@@H](COC[C@@H](O)CN2S(=O)(=O)c2ccc(Cl)cc2)O1)N[C@H]1CCN(Cc2ccccc2)C1,0.937
27,O=C(C[C@@H]1CC=CCCC(=O)OC[C@@H](Cc2c[nH]c3ccccc23)NC1=O)N[C@H](CO)Cc1ccccc1,0.905
